The results in this text go back to US6982249B1, “Bradykinin analogs as selective inhibitors of cell activation” (The Regents of the University of Michigan, priority 1997, dated 2006).

The test system of the data set is NAT12.

Regarding alpha-thrombin, the “cleavage product peak 2, as a share of the original NAT12 peak area” value was “the new peaks constituting 44% (peak 3) and 37% (peak 2), respectively, of the original peak area”; the “cleavage product peak 3, as a share of the original NAT12 peak area” value is “the new peaks constituting 44% (peak 3) and 37% (peak 2), respectively, of the original peak area”; the “reduction of the NAT12 HPLC peak area (peak 1) after 8 nM alpha-thrombin, 1 h at 37 °C” value is on record as “its peak area was reduced by 81%”.
